{
  "source": "ChEMBL document CHEMBL5120941",
  "about": "(ACS Med Chem Lett, 2022)",
  "key": {"[1]": {"test": "Stability of the compound in aqueous solutions measured at pH 8.5 to 9", "conditions": "buffer"}, "[2]": {"test": "Stability of the compound in lyophilized powder form measured at room temperature under anhydrous conditions"}, "[3]": {"test": "Drug metabolism in Sprague-Dawley rat assessed as AUC(0 to 24 hrs) of-contezolid at 10 mg/kg, iv by HPLC-MS/MS analysis", "conditions": "in vivo"}, "[4]": {"test": "Aqueous solubility of the compound in aqueous 5% dextrose at 25 degC", "conditions": "buffer"}, "[5]": {"test": "Stability of the compound measured under storage conditions at ambient temperature"}, "[6]": {"test": "Drug metabolism in basic aqueous medium assessed as deacetylated metabolite formation measured at pH >=8", "conditions": "buffer"}, "[7]": {"test": "Stability of the compound in aqueous solutions at pH 4 to 7.4 measured after 72 hrs", "conditions": "buffer, pH 4, 72 h"}, "[8]": {"test": "Stability of the compound measured under refrigerated conditions at temperature of 5 to 8 degC"}},
  "data": [
    {"smiles": "O=C1C=CN(c2c(F)cc(N3C[C@H](CN(c4ccon4)P(=O)([O-])[O-])OC3=O)c(F)c2F)CC1.[Na+].[Na+]", "values": [
      {"measurement": "Stability", "setting": "[1]", "value": "Stable"},
      {"measurement": "Stability", "setting": "[2]", "value": "Stable"},
      {"measurement": "AUC", "setting": "[3]", "value": 34000, "unit": "ng·h/mL"}
    ]},
    {"smiles": "COP(=O)(O)N(C[C@H]1CN(c2cc(F)c(N3C=CC(=O)CC3)c(F)c2F)C(=O)O1)c1ccon1", "values": [
      {"measurement": "AUC", "setting": "[3]", "value": 700, "unit": "ng·h/mL"},
      {"measurement": "solubility", "setting": "[4]", "value": 23, "unit": "mg/mL"}
    ]},
    {"smiles": "CC(=O)OP(=O)([O-])N(C[C@H]1CN(c2cc(F)c(N3C=CC(=O)CC3)c(F)c2F)C(=O)O1)c1ccon1.[Na+]", "values": [
      {"measurement": "Stability", "setting": "[5]", "value": "Stable"},
      {"measurement": "Drug metabolism", "setting": "[6]", "value": "Metabolite_Detected"},
      {"measurement": "Stability", "setting": "[7]", "value": "Stable"},
      {"measurement": "Stability", "setting": "[8]", "value": "Stable"},
      {"measurement": "AUC", "setting": "[3]", "value": 33400, "unit": "ng·h/mL"}
    ]}
  ]
}
